The entries are a selection whose mix differs from that of the whole data set. Activity calls are given as the source filed them. No stated cut-off is given here; in the data, active means activation above about 40%; inconclusive means between about 15% and that limit; inactive means weaker than that.

Chains of the proteins cited; added tags and fusions are not shown.
UniProt P14416, whole entry: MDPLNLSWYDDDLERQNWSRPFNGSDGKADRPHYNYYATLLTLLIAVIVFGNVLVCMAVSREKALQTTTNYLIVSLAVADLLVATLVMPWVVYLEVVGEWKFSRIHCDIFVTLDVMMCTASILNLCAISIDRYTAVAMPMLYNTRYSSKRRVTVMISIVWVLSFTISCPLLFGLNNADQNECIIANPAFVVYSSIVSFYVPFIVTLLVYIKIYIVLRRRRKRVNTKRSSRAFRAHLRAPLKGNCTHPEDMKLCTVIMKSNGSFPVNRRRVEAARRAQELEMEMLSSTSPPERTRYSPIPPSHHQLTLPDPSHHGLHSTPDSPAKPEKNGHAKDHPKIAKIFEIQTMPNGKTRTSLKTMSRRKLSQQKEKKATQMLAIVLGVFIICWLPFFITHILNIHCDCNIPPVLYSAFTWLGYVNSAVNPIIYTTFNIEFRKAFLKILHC

The assay has as its target D(2) dopamine receptor (Homo sapiens) (UniProt P14416). Kind of assay: Beta-Arrestin HTS for Positive Allosteric Modulators of the Human D2 Dopamine Receptor: Agonists. Conditions: DiscoveRx PathHunter D2 beta-arrestin, luminescence, 90 min; hits give high values; 100% = 57 uM dopamine signal. An excerpt: There is great interest in identifying small molecule ligands for G-protein coupled receptors (GPCRs) as nearly 50% of all FDA-approved drugs target these important receptor proteins. […] Amongst the dopamine receptors (DARs), the D2 is arguably one of the most validated drug targets in neurology and psychiatry. For instance, all receptor-based antiparkinsonian drugs primarily work via stimulating the D2 DAR, whereas all FDA-approved antipsychotic agents are antagonists of this receptor. The D2 DAR is also therapeutically targeted in other disorders such as restless legs syndrome, tardive dyskinesia, Tourette's syndrome, and hyperprolactinemia.
To this end, a miniaturized qHTS screen was developed to be screened against the Molecular Libraries Small Molecule Repository (MLSMR). This assay seeks to identify agonists against the D2 DAR.
NIH Molecular Libraries Probe Production Network [MLPCN]
NIH Chemical Genomics Center [NCGC]
PI Name: David Sibley, National Institutes of Neurological Disorders and Stroke
DiscoveRx D2 cells were thawed from frozen stock and seeded at 2,100 cells/ 3 uL/well media (DiscoveRx Plating Reagent 2) with MultiDrop Combi dispenser (Thermo Scientific, Logan, UT) onto white tissue culture treated 1536-well Aurora plates (Brooks Automation, Chelmsford, MA) and allowed to attach overnight at 37 deg C, 5% CO2. Next, 23 nL/well of compound solutions in DMSO were added with a pintool transfer (Kalypsis, San Diego, CA). As the positive control, 1 uL/well dopamine (EC100, 57 uM final concentration) diluted in buffer (HBSS + 10 mM HEPES + SMB + 0.1% Tween-20) was dispensed to 1 column of each plate. The rest of the plate was dispensed with buffer only, 1 uL/well as well. The cells were stimulated by compounds or dopamine control for 90 minutes at 37 deg C, 5% CO2, after which 1.5 ul/well of DiscoveRx detection reagent was added with BioRAPTR FRD dispenser. The detection reagent was prepared by mixing of Galacton Star Substrate, Emerald II solution and PathHunter buffer (supplied by the assay kit) together at 1:5:19 proportion accordingly just prior to dispensing. The plates were incubated at ambient temperature for 1 hour and then the luminescent signal was read on ViewLux plate reader (PerkinElmer, Waltham, MA).
Turning to `COC(=O)C1(C)COP(=O)(N2CCCC2)OC1` (stereo not drawn), the activation is inactive: -6.51%. The result for `CP(=O)(Oc1ccccc1)OC(c1ccccc1)C(F)(F)F` (stereo not drawn) reads inactive: -0.359%. For the compound `CP(=O)(Nc1ccc(SC(F)(F)F)cc1)Oc1ccc(Cl)cc1` (stereo not drawn), the activation was inactive: -3.35%. The result for `Cc1cccc(C)c1OP(C)(=O)Nc1ccc(SC(F)(F)F)cc1` (stereo not drawn) reads inactive: -1.25%; that for `COP1(=S)c2c(C)nn(CCC#N)c2N=C(c2ccc(F)cc2)N1C` (stereo not drawn), inactive: -2.29%. In the case of `Cc1cc(C)cc(OP(C)(=O)Nc2ccc(SC(F)(F)F)cc2)c1` (stereo not drawn), the activation was inactive: -3.26%. On to `CCc1ccc(OP(C)(=O)N2CCN(c3ccc([N+](=O)[O-])cc3)CC2)cc1` (stereo not drawn), for which the activation is inactive: -4.05%.

As to `CP(=O)(NC(=O)Nc1ccccc1)Oc1ccccc1` (stereo not drawn), the activation was inactive: -1.64%. The result for `O=C(COc1ccccc1)OC1CN2CCC1CC2` (stereo not drawn) reads inactive: -2.14%; that for `O=[N+]([O-])c1cc([N+](=O)[O-])c(O)c([N+](=O)[O-])c1.c1ccc(Oc2ccncc2)cc1`, inactive: -7.44%. With `CCOC(=O)c1ccc(NP(C)(=O)Oc2ccc(OC)cc2)cc1` (stereo not drawn), the activation is inactive: 2.44%. The result for `CCOC(=O)c1ccc(NC(=O)C(C)(CCl)SC)cc1` (stereo not drawn) reads inactive: 5.48%; that for `CSc1ccc(Nc2c([N+](=O)[O-])cc([N+](=O)[O-])cc2[N+](=O)[O-])cc1`, inactive: 2.5%.

With `O=C(OC1CN2CCC1CC2)c1cccc([N+](=O)[O-])c1` (stereo not drawn), the activation was inactive: -3.1%. For `CCOP(C)(=S)SCC(=O)NC(C)C(=O)O` (stereo not drawn) the value was inactive: 0.0937%; for `CP(=O)(Nc1ccccn1)Oc1ccc(Cl)cc1` (stereo not drawn), inactive: -0.54%; for `CCC(C)N(CC(C)C)C(=S)SC(NC(C)=O)C(Cl)(Cl)Cl` (stereo not drawn), inactive: -4.33%.

Consider `CC1CCNP(=O)(N(CCCl)CCCl)O1` (stereo not drawn), for which the activation is inactive: -3.07%. For `CCOC(=O)Nc1ccc([As](=O)(O)O)c(O)c1` the value was inactive: -0.453%; for `O=C(O)C(=O)c1ccc(N(CCCl)CCCl)cc1.c1ccc(Nc2ccccc2)cc1`, inactive: -4.1%; for `Cc1cc(SC(NC(=O)c2ccccc2)C(Cl)(Cl)Cl)nc(C(C)C)n1` (stereo not drawn), inactive: -2.05%. The result for `CCCCOc1ccc(C(=O)NCC2(N3CCCCC3)CCCCC2)cc1OC` reads inactive: -16.1%. The result for `COP(=O)(OC)N1CC1c1ccccc1` (stereo not drawn) reads inactive: -9.23%; that for `CCOC(=O)Nc1cccc([As](=O)(O)O)c1`, inactive: 0.554%. As for `CP(=S)(Nn1cnnc1)Oc1ccccc1` (stereo not drawn), the activation was inactive: 0.0172%.

`O=[N+]([O-])c1ccc(Nc2ccc(Oc3ccc([N+](=O)[O-])cc3[N+](=O)[O-])cc2)c([N+](=O)[O-])c1`: the activation is inactive: 4.84%.

For `CP(=O)(Nc1ccccc1Br)Oc1ccccc1` (stereo not drawn), the activation is inactive: -10.3%.

For the compound `COc1ccccc1OP(C)(=O)Nc1ccccc1` (stereo not drawn), the activation is inactive: -2.68%. The result for `Cc1cc(SC(NC=O)C(Cl)(Cl)Cl)ncn1` (stereo not drawn) reads inactive: -2.93%; that for `O=P(Nc1ccccn1)(c1cccc2ccccc12)c1cccc2ccccc12`, inactive: 2.54%; that for `COc1cc(C(=O)NCC2(N3CCOCC3)CCCCC2)ccc1OCC(C)C`, inactive: -0.351%.

On to `O=[N+]([O-])c1ccc(-c2cc([N+](=O)[O-])c(O)c([N+](=O)[O-])c2)cc1`, for which the activation was inactive: -8.85%. The result for `O=[As](O)(c1ccc(O)cc1)c1ccccc1O` reads inactive: 0.545%; that for `C[As](=O)(O)c1cccc(C(=O)O)c1`, inactive: -8.06%. For `O=[N+]([O-])c1cc([N+](=O)[O-])c(Nc2cccnc2)c([N+](=O)[O-])c1` the value was inactive: -15%. The result for `Cc1ccc2nc3c(c(C)c2c1)CC(C(Cl)Cl)S3` (stereo not drawn) reads inactive: 7.3%; that for `O=[N+]([O-])c1ccc2c(c1)C=Nc1ccccc1O2`, inactive: 1.45%. Turning to `Cc1cccc(C)c1OP(C)(N)=O` (stereo not drawn), the activation is inactive: -3.52%. For `CC(C)(C)c1ccc(OP(C)(=O)Nc2ccc(SC(F)(F)F)cc2)cc1` (stereo not drawn) the value was inactive: -7.33%; for `Cc1ccc(OP(=O)(Nc2ccc([N+](=O)[O-])cn2)Oc2ccc(C)cc2)cc1`, inactive: -5.06%; for `Cc1ccc(NP(C)(=O)Oc2ccccc2)c(C)c1` (stereo not drawn), inactive: -4.25%. On to `CC(C)c1ccc(OP(=O)(Nc2ccccn2)Oc2ccccc2F)cc1` (stereo not drawn), for which the activation is inactive: 0.724%. With `COC(=O)C1(C)COP(=O)(N2CCCCCC2)OC1` (stereo not drawn), the activation was inactive: 0.233%. With `COc1ccccc1OP(C)(=O)Nc1ccc(C)cc1` (stereo not drawn), the activation is inactive: -0.708%. The result for `ClCCSc1nnc(-c2cccnc2)o1` reads inactive: -0.881%; that for `CCOC(=O)c1ccc(NP(C)(=O)Oc2ccccc2)cc1` (stereo not drawn), inactive: -0.665%. The result for `Cc1cc(C)cc(OP(C)(N)=O)c1` (stereo not drawn) reads inactive: -9.26%; that for `O=[N+]([O-])c1cc([N+](=O)[O-])c(-c2ccn[nH]2)s1`, inactive: 4.18%. The result for `COc1ccc(OP(C)(=O)Nc2cccc(F)c2)cc1` (stereo not drawn) reads inactive: -2.1%; that for `CCN(CC)C(=S)SC(NC=O)C(Cl)(Cl)Cl` (stereo not drawn), inactive: -1.47%; that for `O=C(OC1CN2CCC1CC2)c1cccc2[nH]cnc12` (stereo not drawn), inactive: 7.19%. For `CC(C)NC(=O)NP(=O)(Oc1ccccc1)Oc1ccccc1`, the activation is inactive: -1.64%. For `COc1ccccc1OP(C)(=O)Nc1cc(Cl)ccc1C` (stereo not drawn) the value was inactive: -2.62%; for `Cc1cc(=O)[nH]c(N[N+](=O)[O-])n1`, inactive: -3.05%.

As to `CCN(CC)CCCOC(=O)C(O)(c1ccccc1)c1ccccc1`, the activation is inactive: 0.107%. For `O=C(OC1CN2CCC1CC2)C12CC3CC(CC(C3)C1)C2` (stereo not drawn) the value was inactive: -1.73%; for `Cc1c2c(nc3ccccc13)SC(C(Cl)Cl)C2` (stereo not drawn), inactive: 2.03%.

As for `COc1cc(I)ccc1[As](=O)(O)O`, the activation was inactive: -3.95%.

`COc1ccc2nc(NP(=O)(c3ccccc3)c3ccccc3)sc2c1`: the activation was inactive: -0.0487%. The result for `O=P1(N(CCCl)CCCl)Nc2ccccc2N1` reads inactive: -1.88%.

Regarding `O=P1(N(CCCl)CCCl)OCCCN1CCCl` (stereo not drawn), the activation is inactive: -2.96%. The result for `COc1ccc(N/C(=N/P(=O)(N2CCOCC2)N2CCOCC2)N2CCOCC2)cc1` reads inactive: -0.504%. The result for `COc1ccccc1OP(C)(=O)Nc1cccc(Br)c1` (stereo not drawn) reads inactive: -3.88%. As to `CS(=O)(=O)c1ccc(Cl)c(NC(=O)COC(=O)C(O)(c2ccccc2)c2ccccc2)c1`, the activation was inactive: 5.46%. The result for `COc1cc(C(=O)NCC2(N3CCOCC3)CCCCC2)cc(Cl)c1OC(C)C` reads inactive: 4.13%. The result for `O=[As](O)(O)c1cccnc1` reads inactive: -3.55%; that for `O=C(OC1CN2CCC1CC2)c1ccc(Cl)cc1` (stereo not drawn), inactive: -1.89%. For the compound `CCOC(=O)c1ccc(NP(C)(=O)Oc2cc(C)cc(C)c2)cc1` (stereo not drawn), the activation is inactive: -1.75%. In the case of `Cc1cc(C)cc(OP(C)(=O)Nc2ccc(C)cc2C)c1` (stereo not drawn), the activation was inactive: -3.61%. The result for `O=[As](O)(c1cccc(O)c1)c1cccc(O)c1` reads inactive: -0.903%; that for `Cc1cccc(OCC(=O)OC2CN3CCC2CC3)c1` (stereo not drawn), inactive: 1.5%.

Turning to `CCCOP(=S)(Nc1nc(N)cc(=O)[nH]1)OCCC`, the activation is inactive: 0.447%. The result for `Cc1ccc(C)c(NP(C)(=O)Oc2ccccc2)c1` (stereo not drawn) reads inactive: -1.74%. For the compound `Cc1ccc(NCCc2c([N+](=O)[O-])cc([N+](=O)[O-])cc2[N+](=O)[O-])cc1`, the activation was inactive: 8.75%.

Take `Nc1cccc2c([As](=O)(O)O)cccc12`: the activation is inactive: 8.34%.

In the case of `CP(=O)(Nc1cccc(Br)c1)Oc1ccccc1` (stereo not drawn), the activation is inactive: -3.78%.

Take `Cc1cc(C)cc(OP(C)(=O)Nc2ccccn2)c1` (stereo not drawn): the activation was inactive: -0.557%. The result for `CCOP(=O)(Nc1cccc2ccccc12)OCC` reads inactive: -3.31%; that for `CS(=O)(=O)c1cc([N+](=O)[O-])c2no[n+]([O-])c2c1`, inactive: 7.78%. As to `O=P(Nc1nccs1)(c1ccccc1)c1nc2ccccc2s1` (stereo not drawn), the activation was inactive: -6.07%.

As for `O=P(Nc1nccs1)(Oc1ccccc1)Oc1ccccc1`, the activation is inactive: -0.432%. The result for `CCOP1(=S)c2c(C)nn(CCC#N)c2N=C(c2ccccc2F)N1C` (stereo not drawn) reads inactive: -4.82%; that for `O=C(O)COc1ccc([As](=O)(O)O)cc1[N+](=O)[O-]`, inactive: -1.09%; that for `Nc1ccccc1[As](=O)(O)c1ccccc1`, inactive: -2.49%.

`NC(=O)Nc1ccc([As](=O)(O)O)cc1`: the activation was inactive: -1.51%. For `CN(C(=O)Cc1ccc(Cl)c(Cl)c1)[C@H]1CC[C@@]2(CCCO2)C[C@@H]1N1CCCC1` the value was inactive: -7.75%; for `CC1=NCCc2c1[nH]c1ccccc21.O=[N+]([O-])c1cc([N+](=O)[O-])c(O)c([N+](=O)[O-])c1`, inactive: -5.27%; for `CN(C)C(=O)c1cc([N+](=O)[O-])cc2c1-c1c(cc([N+](=O)[O-])cc1[N+](=O)[O-])C2=O`, inactive: 6.69%.

As for `O=[N+]([O-])c1ccc2c(c1)nnn2O`, the activation is inactive: -5.24%. In the case of `CN(C(=O)Cc1ccccc1)[C@@H]1CC[C@]2(CCCO2)C[C@H]1N1CCCC1`, the activation is inactive: -2.48%. On to `CCOP1(=S)c2c(C)nn(CCC#N)c2N=C(c2ccc(F)cc2)N1C` (stereo not drawn), for which the activation was inactive: -0.124%. The result for `N#CCCN(C(=O)COC(=O)C(O)(c1ccccc1)c1ccccc1)c1ccc(F)cc1` reads inactive: -4.77%; that for `COc1cc(C2NCCC3(OCCO3)C2(C)C)cc(OC)c1OC.O=[N+]([O-])c1cc([N+](=O)[O-])c(O)c([N+](=O)[O-])c1` (stereo not drawn), inactive: -5.36%; that for `Cc1ccc(C(=O)OC2CN3CCC2CC3)cc1` (stereo not drawn), inactive: 2.02%. On to `CC1CCC(C(C)C)C(OP(=O)(Nc2ccccn2)c2ccccc2)C1` (stereo not drawn), for which the activation is inactive: -4.65%. The result for `Cc1nn(-c2ccccc2)c2c1P(=O)(N1CCOCC1)N(C)C(c1ccccc1)=N2` (stereo not drawn) reads inactive: -1.47%. The result for `CCCC1OP(=O)(Nc2ccccc2)OCC1CC` (stereo not drawn) reads inactive: -2.26%; that for `O=C(/C=C/c1ccccc1)OC1CN2CCC1CC2` (stereo not drawn), inactive: -6.32%.

For the origin of these results see PubChem BioAssay AID624465 (National Center for Advancing Translational Sciences (NCATS), 2012).
